Tested on: tubulin (colchicine site)
Test: inhibition of [3H]colchicine binding to tubulin
Design: species or system bovine
Settings: in % (unit assumed)

Question: With `COc1ccc(/C=C\c2cc(OC)c(OC)c(OC)c2)cc1O` [combretastatin A-4, reference compound] as the molecule, how does the “inhibition of colchicine binding (5 μM inhibitor)” value read?
Answer: 98 ± 0.3

Source: patent US10906910B2, “Substituted bicyclic pyrimidine compounds with tubulin and multiple receptor inhibition” (Duquesne University of the Holy Spirit, priority 2014, dated 2021)
